Earlier results as cited in PMC9772450, “Gel-forming antagonist provides a lasting effect on CGRP-induced vasodilation” (Frontiers in Pharmacology, 2022).

Conditions: approved peptide therapeutics; cited from earlier work

For octreotide, the Volume of distribution is given as 18.1 to 30.4 L.
